Data on one compound can be found in ChEMBL document CHEMBL1130988, “Antiinflammatory 2-benzyl-4-sulfonyl-4H-isoquinoline-1,3-diones: novel inhibitors of COX-2” (Bioorg Med Chem Lett, 1998).

One may read the inhibition as the drop in the measured response relative to a control, in per cent. Lower therefore signals a weak effect.

The test addresses Prostaglandin G/H synthase 2 (Homo sapiens) (UniProt P35354). The test can be described thus: Inhibitory activity against cyclooxygenase-2 (COX-2) in cell assay using stably transfected Cos-A2 CELLS at dose 1 ug/mL. The settings on record: Cercopithecidae.

The structures appear in SMILES notation.

Turning to `CC(C)S(=O)(=O)c1c(O)n(Cc2ccc(F)c(F)c2)c(=O)c2ccccc12`, the inhibition was found to be 54%.
